Laboratory results as given in PMC12736535, “Generation and Characterization of Novel Contilisant+Tubastatin a Multitarget Small Molecules Against Glioblastoma” (Pharmaceutics, 2025).

Protein sequences, listed by entry. Tags and fused reporters are not part of them.
UniProt P27338, whole entry: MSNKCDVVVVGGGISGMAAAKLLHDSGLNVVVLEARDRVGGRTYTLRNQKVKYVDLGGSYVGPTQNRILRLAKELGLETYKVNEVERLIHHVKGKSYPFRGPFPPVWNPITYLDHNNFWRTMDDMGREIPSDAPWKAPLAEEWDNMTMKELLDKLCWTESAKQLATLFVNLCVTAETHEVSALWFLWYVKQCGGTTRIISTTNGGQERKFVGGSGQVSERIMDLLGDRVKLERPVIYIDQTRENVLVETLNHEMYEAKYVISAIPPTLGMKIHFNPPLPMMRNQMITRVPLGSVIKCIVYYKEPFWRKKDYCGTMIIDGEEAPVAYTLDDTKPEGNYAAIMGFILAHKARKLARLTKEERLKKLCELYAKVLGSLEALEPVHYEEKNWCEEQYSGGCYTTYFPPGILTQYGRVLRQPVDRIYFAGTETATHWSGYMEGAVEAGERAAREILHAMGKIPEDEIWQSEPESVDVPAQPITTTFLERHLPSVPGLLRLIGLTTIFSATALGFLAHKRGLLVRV

Biological target: recombinant hMAO-B (Homo sapiens, UniProt P27338)
Test: MAO-B inhibition assay

C#CCN1CCN(CCCOc2ccc3c(ccn3S(=O)(=O)c3ccc(C(=O)NNCCC)cc3)c2)CC1 [FRB56] showed an IC50 of 150 nM.
